From patent publication US12691103B2 (Jinan University, priority 2022, dated 2026)

Tested on: blood-testis barrier (BTB)
Settings: busulfan model mice; riluzole intraperitoneal 3, 6 mg/kg for 7 days; biotin labeling

Nc1nc2ccc(OC(F)(F)F)cc2s1 [riluzole, 2-amino-6-trifluomethoxy-benzothiazole]
integrity of the blood-testis barrier of the mouse testis: more complete
